Source: ChEMBL document CHEMBL1129381, “Novel (R)-2-amino-5-fluorotetralins: dopaminergic antagonists and inverse agonists” (J Med Chem, 1996)

Chains of the proteins cited; added tags and fusions are not shown.
UniProt P14416, whole entry: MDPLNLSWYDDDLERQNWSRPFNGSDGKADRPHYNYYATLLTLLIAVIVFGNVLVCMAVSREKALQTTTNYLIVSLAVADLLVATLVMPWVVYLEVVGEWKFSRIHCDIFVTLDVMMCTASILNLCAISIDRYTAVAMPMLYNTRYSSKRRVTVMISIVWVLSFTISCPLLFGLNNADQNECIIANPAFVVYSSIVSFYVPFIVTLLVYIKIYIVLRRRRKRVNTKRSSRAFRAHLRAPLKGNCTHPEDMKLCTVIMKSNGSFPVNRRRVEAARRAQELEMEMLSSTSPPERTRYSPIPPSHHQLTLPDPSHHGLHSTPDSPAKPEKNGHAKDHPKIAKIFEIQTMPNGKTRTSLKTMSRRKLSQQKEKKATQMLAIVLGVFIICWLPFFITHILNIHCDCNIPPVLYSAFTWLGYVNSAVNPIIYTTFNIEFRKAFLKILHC

Molecular target: D(2) dopamine receptor (Homo sapiens, UniProt P14416)

In the case of `CC(C)N[C@@H]1CCc2c(F)cccc2C1`, the pKi was 5.61.

pKi: −log10 of the molar value.
